# The entries are a selection whose mix differs from that of the whole data set. Activity calls are given as the source filed them.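 Rule for the calls: active = activation above a cutoff set at the mean over all compounds plus 3 SD (cut at about 18% in these data); inactive = the rest.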
# The chains behind the UniProt entries cited, without tags or fusion partners.
# UniProt P31323, whole entry, looked up: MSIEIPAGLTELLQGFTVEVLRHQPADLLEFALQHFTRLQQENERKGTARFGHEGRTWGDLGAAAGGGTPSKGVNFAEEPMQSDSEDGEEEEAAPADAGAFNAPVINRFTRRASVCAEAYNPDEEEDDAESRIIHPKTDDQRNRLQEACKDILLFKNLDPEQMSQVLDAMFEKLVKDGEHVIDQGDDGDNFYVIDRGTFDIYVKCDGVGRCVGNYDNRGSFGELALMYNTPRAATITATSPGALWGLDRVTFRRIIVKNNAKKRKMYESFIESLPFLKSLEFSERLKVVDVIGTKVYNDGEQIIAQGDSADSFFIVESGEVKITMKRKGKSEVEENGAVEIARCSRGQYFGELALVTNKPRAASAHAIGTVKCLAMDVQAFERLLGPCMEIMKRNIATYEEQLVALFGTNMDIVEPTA
# Target: cAMP-dependent protein kinase catalytic subunit beta (Homo sapiens) + cAMP-dependent protein kinase type II-beta regulatory subunit (Homo sapiens) (UniProt P22694+P31323)
# Assay: activators of PKA-R2B holoenzyme, primary screen, biochemical, fluorescence polarization, Cy5-IP20, human (AID 504700);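 note: higher means more holoenzyme dissociation and a rise in polarization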
# Settings: PKA-R2B holoenzyme dissociation, at 11.4 µM, stronger effect = higher value, 0% DMSO only, 100% 113 µM cGMP, R2B truncated from residue 108, S112A mutant
row,Structure (SMILES),activation
1,CC(=O)N1C2C3N(C(C)=O)C1C1N(C(C)=O)C(C(N1C(C)=O)N3C(C)=O)N2C(C)=O,inactive: -2.01%
2,CCN(/C(=N/P(=O)(N1CCOCC1)N1CCOCC1)N1CCOCC1)c1ccc(OC)cc1,inactive: -4.89%
3,Nc1ccc([As](=O)(O)c2ccc(N)cc2)cc1,inactive: 11.5%
4,C[N+]1=C2C=CC=CC=C2SC12C([N+](=O)[O-])=CC([N+](=O)[O-])=C[C-]2[N+](=O)[O-] (configuration not stated),inactive: 3.22%
5,c1cc(-c2nn[nH]n2)ccc1-c1nn[nH]n1,inactive: -11%
6,CC1CCN(C(=O)Oc2c(Cl)cc(Cl)c3cccnc23)CC1,inactive: 1.08%
7,CC(C)=N/N=C(\N)N[N+](=O)[O-],inactive: 9.53%
8,CC(C)c1nc(Nc2ccccc2)n(P(=O)(N(C)C)N(C)C)n1,inactive: 3.32%
9,CN(C)C(=O)OCCc1n(C)cc[n+]1C,inactive: -2.34%
10,O=P1(N(CCCl)CCCl)OCCCS1 (configuration not stated),inactive: -8.3%
11,O=C(Nc1cc([As](=O)(O)O)ccc1O)c1ccccc1,inactive: 0.21%
12,O=[N+]([O-])c1ncn(CCn2ncnc2[N+](=O)[O-])n1,inactive: 7.44%
13,CC(C)(C)C(=O)NC(Sc1ccncn1)C(Cl)(Cl)Cl (configuration not stated),inactive: -6.73%
14,O=C(O)CNc1ccc([As](=O)(O)O)cc1,inactive: -0.17%
15,O=[N+]([O-])c1cccc(NC2=NCC(CBr)S2)c1 (configuration not stated),inactive: 4.97%
16,COC(=O)C1(C)COP(=O)(Nc2ccccc2)OC1 (configuration not stated),inactive: 5.57%
17,CCOC(=O)Nc1ccc([As](=O)(O)O)c(O)c1,inactive: 5.03%
18,O=C(O)C(O)c1ccc(N(CCCl)CCCl)cc1 (configuration not stated),inactive: 1.01%
19,CC1CCNP(=O)(N(CCCl)CCCl)O1 (configuration not stated),inactive: -5.64%
20,COP(=O)(OC)N1CC1c1ccccc1 (configuration not stated),inactive: 5.8%
21,CCCCOc1ccc(C(=O)NCC2(N3CCCCC3)CCCCC2)cc1OC,inactive: -0.51%
22,Cc1cc(SC(NC(=O)c2ccccc2)C(Cl)(Cl)Cl)nc(C(C)C)n1 (configuration not stated),inactive: 4.18%
23,CCOC(=O)Nc1cccc([As](=O)(O)O)c1,inactive: 7.2%
24,O=P(Nc1ccccn1)(c1cccc2ccccc12)c1cccc2ccccc12,inactive: -6.79%
25,Cc1cc(SC(NC=O)C(Cl)(Cl)Cl)ncn1 (configuration not stated),inactive: -5.66%
26,O=[N+]([O-])c1ccc(Nc2ccc(Oc3ccc([N+](=O)[O-])cc3[N+](=O)[O-])cc2)c([N+](=O)[O-])c1,inactive: -0.63%

row,Structure (SMILES),activation
1,COP1(=S)c2c(C)nn(CCC#N)c2N=C(c2ccc(F)cc2)N1C (configuration not stated),inactive: 8.14%
2,O=C(O)C(=O)c1ccc(N(CCCl)CCCl)cc1,inactive: -4%
3,O=C(COc1ccccc1)OC1CN2CCC1CC2 (configuration not stated),inactive: 2.75%
4,O=C(Nc1ccncc1[N+](=O)[O-])c1ccc([N+](=O)[O-])cc1[N+](=O)[O-],inactive: 3.4%
5,O=C(OC1CN2CCC1CC2)c1cccc([N+](=O)[O-])c1 (configuration not stated),inactive: -5.31%
6,CSc1ccc(Nc2c([N+](=O)[O-])cc([N+](=O)[O-])cc2[N+](=O)[O-])cc1,inactive: 5.47%
7,CCOC(=O)c1ccc(NC(=O)C(C)(CCl)SC)cc1 (configuration not stated),inactive: 5.97%
8,CCC(C)N(CC(C)C)C(=S)SC(NC(C)=O)C(Cl)(Cl)Cl (configuration not stated),inactive: -1.68%
9,Cc1c2c(nc3ccccc13)SC(C(Cl)Cl)C2 (configuration not stated),inactive: 5.98%
10,O=C(OC1CN2CCC1CC2)C12CC3CC(CC(C3)C1)C2 (configuration not stated),inactive: -5.11%
11,Cc1cc(=O)[nH]c(N[N+](=O)[O-])n1,inactive: -0.1%
12,O=P1(N(CCCl)CCCl)OCCCN1CCCl (configuration not stated),inactive: -0.41%
13,O=P1(N(CCCl)CCCl)Nc2ccccc2N1,inactive: -4.42%
14,COc1ccc2nc(NP(=O)(c3ccccc3)c3ccccc3)sc2c1,inactive: 8.56%
15,COc1cc(I)ccc1[As](=O)(O)O,inactive: 2.79%
16,O=[N+]([O-])c1cc(Oc2ccc([N+](=O)[O-])cc2C(F)(F)F)cc([N+](=O)[O-])c1,inactive: 3.53%
17,COc1ccc(N/C(=N/P(=O)(N2CCOCC2)N2CCOCC2)N2CCOCC2)cc1,inactive: -5.9%
18,C[As](=O)(O)c1cccc(C(=O)O)c1,inactive: -2.59%
19,O=[As](O)(c1ccc(O)cc1)c1ccccc1O,inactive: -8.49%
20,COc1cc(C(=O)NCC2(N3CCOCC3)CCCCC2)ccc1OCC(C)C,inactive: -7.73%
21,O=[N+]([O-])c1ccc(-c2cc([N+](=O)[O-])c(O)c([N+](=O)[O-])c2)cc1,inactive: -20.3%
22,Cc1ccc(OP(=O)(Nc2ccc([N+](=O)[O-])cn2)Oc2ccc(C)cc2)cc1,inactive: 2.42%
23,Cc1ccc2nc3c(c(C)c2c1)CC(C(Cl)Cl)S3 (configuration not stated),inactive: -9.14%
24,ClCCSc1nnc(-c2cccnc2)o1,inactive: -7.25%
25,CC(C)c1ccc(OP(=O)(Nc2ccccn2)Oc2ccccc2F)cc1 (configuration not stated),inactive: 2.21%
26,COC(=O)C1(C)COP(=O)(N2CCCCCC2)OC1 (configuration not stated),inactive: 11.4%

row,Structure (SMILES),activation
1,CCN(CC)C(=S)SC(NC=O)C(Cl)(Cl)Cl (configuration not stated),inactive: 7.9%
2,O=C(OC1CN2CCC1CC2)c1cccc2[nH]cnc12 (configuration not stated),inactive: -3.2%
3,O=[N+]([O-])c1cc([N+](=O)[O-])c(-c2ccn[nH]2)s1,inactive: 3.4%
4,CCOP1(=S)c2c(C)nn(CCC#N)c2N=C(c2ccccc2F)N1C (configuration not stated),inactive: -15.2%
5,O=P(Nc1nccs1)(c1ccccc1)c1nc2ccccc2s1 (configuration not stated),inactive: -2.82%
6,O=P(Nc1nccs1)(Oc1ccccc1)Oc1ccccc1,inactive: 0.97%
7,CS(=O)(=O)c1cc([N+](=O)[O-])c2no[n+]([O-])c2c1,inactive: -6.42%
8,Nc1ccccc1[As](=O)(O)c1ccccc1,inactive: 9.16%
9,O=C(O)COc1ccc([As](=O)(O)O)cc1[N+](=O)[O-],inactive: 4.14%
10,NC(=O)Nc1ccc([As](=O)(O)O)cc1,inactive: 8.33%
11,N#CCCN(C(=O)COC(=O)C(O)(c1ccccc1)c1ccccc1)c1ccc(F)cc1,inactive: 4.37%
12,CN(C(=O)Cc1ccccc1)[C@@H]1CC[C@]2(CCCO2)C[C@H]1N1CCCC1,inactive: 0.9%
13,CCOP1(=S)c2c(C)nn(CCC#N)c2N=C(c2ccc(F)cc2)N1C (configuration not stated),inactive: -7.1%
14,CN(C)C(=O)c1cc([N+](=O)[O-])cc2c1-c1c(cc([N+](=O)[O-])cc1[N+](=O)[O-])C2=O,inactive: -2.12%
15,O=[N+]([O-])c1ccc2c(c1)nnn2O,inactive: -3.91%
16,CN(C(=O)Cc1ccc(Cl)c(Cl)c1)[C@H]1CC[C@@]2(CCCO2)C[C@@H]1N1CCCC1,inactive: 5.05%
17,O=C(OC1CN2CCC1CC2)c1ccc(Cl)cc1 (configuration not stated),inactive: 2.87%
18,COc1cc(C(=O)NCC2(N3CCOCC3)CCCCC2)cc(Cl)c1OC(C)C,inactive: -13.7%
19,O=[As](O)(O)c1cccnc1,inactive: -2.24%
20,CS(=O)(=O)c1ccc(Cl)c(NC(=O)COC(=O)C(O)(c2ccccc2)c2ccccc2)c1,inactive: 2.33%
21,O=[As](O)(c1cccc(O)c1)c1cccc(O)c1,inactive: -2.56%
22,Cc1cccc(OCC(=O)OC2CN3CCC2CC3)c1 (configuration not stated),inactive: -3.69%
23,Cc1ccc(NCCc2c([N+](=O)[O-])cc([N+](=O)[O-])cc2[N+](=O)[O-])cc1,inactive: -3.55%
24,Nc1cccc2c([As](=O)(O)O)cccc12,inactive: -0.49%
25,CCCOP(=S)(Nc1nc(N)cc(=O)[nH]1)OCCC,inactive: -2.47%
26,COc1cc(C2NCCC3(OCCO3)C2(C)C)cc(OC)c1OC (configuration not stated),inactive: -13.1%

row,Structure (SMILES),activation
1,CCOP(=O)(Nc1cccc2ccccc12)OCC,inactive: 6.2%
2,O=P1(Nc2ccccn2)COc2ccccc2OC1,inactive: -7.74%
3,CCC1=CC2Cc3nc4ccc(Cl)cc4c(N)c3C(C1)C2 (configuration not stated),inactive: -2.8%
4,CCOP(=O)(NC(=NC(C)c1ccccc1)NC(C)c1ccccc1)OCC (configuration not stated),inactive: 9.06%
5,CCOP(=O)(Nc1ccc(C)cn1)OCC,inactive: 2.28%
6,O=P1(N(CCCl)CCCl)NCCC(C(F)(F)F)O1 (configuration not stated),inactive: 2.94%
7,Clc1n[nH]nc1-c1nn[nH][15n]1,inactive: -2.75%
8,CC(C)(C)C(=O)NC(Sc1ncccn1)C(Cl)(Cl)Cl (configuration not stated),inactive: 0.52%
9,COc1ccccc1CNC(=O)COC(=O)C(O)(c1ccccc1)c1ccccc1,inactive: -5.19%
10,CC(C)/C=N\N=C(\N)N[N+](=O)[O-],inactive: -2.82%
11,CN(C(=O)Cc1ccc(Cl)c(Cl)c1)[C@@H]1CCCC[C@H]1N1CCCC1,inactive: 3.25%
12,CC1(CBr)Cn2c(nc3ccccc3c2=O)S1 (configuration not stated),inactive: -4.01%
13,Cc1nn(-c2ccccc2)c2c1P(=O)(N1CCOCC1)N(C)C(c1ccccc1)=N2 (configuration not stated),inactive: -1.81%
14,CC1CCC(C(C)C)C(OP(=O)(Nc2ccccn2)c2ccccc2)C1 (configuration not stated),inactive: -2.28%
15,Cc1ccc(C(=O)OC2CN3CCC2CC3)cc1 (configuration not stated),inactive: -6.1%
16,CN(C)C1(CNC(=O)c2ccc(S(C)(=O)=O)cc2)CCCCC1,inactive: -5.4%
17,O=C(/C=C/c1ccccc1)OC1CN2CCC1CC2 (configuration not stated),inactive: -12%
18,CCCC1OP(=O)(Nc2ccccc2)OCC1CC (configuration not stated),inactive: -5.91%
19,O=P1(Nc2ncccn2)COc2ccccc2OC1,inactive: -5.87%
20,Nc1cccc([As](=O)(O)c2ccccc2)c1,inactive: -16.3%
21,O=P1(Nc2ccc(Br)cn2)COc2ccccc2OC1,inactive: -2.49%
22,NS(=O)(=O)c1cccc(NC(=O)COC(=O)C(O)(c2ccccc2)c2ccccc2)c1,inactive: -1.24%
23,Cc1ccc(OCC(=O)OC2CN3CCC2CC3)cc1 (configuration not stated),inactive: 0.02%
24,O=[As](O)(c1cccs1)c1cccs1,inactive: -2.12%

# Source: PubChem BioAssay AID504700 (The Scripps Research Institute Molecular Screening Center, 2011)
